The target in test [1] is T1, 全长TIGIT (Gene ID:201633), 表达于细胞表面 (UniProt Q495A1 22-244). Briefly: cell-based or functional assay.
Test [2] has as its target T1, 全长TIGIT (Gene ID:201633), 表达于细胞表面. Briefly: cell-based or functional assay. The source holds these as a separate data set.
Test [3] shares this target. Briefly: flow cytometry, NHS-Fluro labelled antibody on Jurkat-TIGIT cells.
The target is the same in test [4]. Briefly: flow cytometry competition on Jurkat-TIGIT cells; competitor FITC-CD155 (600 nM mixed 1:1 with the antibody).
A further test has as its target T2, 人TIGIT/mFc (human, UniProt Q495A1 22-141, limits assumed).
T2 construct: Made in house (安源医药科技(上海)有限公司); not shown: mouse Fc (mFc)
Briefly: ELISA, human TIGIT/mFc coated at 1 μg/ml, HRP anti-human IgG(H+L).

Protein sequences, listed by entry. Tags and fused reporters are not part of them. Residues count along the entry.
UniProt Q495A1, 22-244: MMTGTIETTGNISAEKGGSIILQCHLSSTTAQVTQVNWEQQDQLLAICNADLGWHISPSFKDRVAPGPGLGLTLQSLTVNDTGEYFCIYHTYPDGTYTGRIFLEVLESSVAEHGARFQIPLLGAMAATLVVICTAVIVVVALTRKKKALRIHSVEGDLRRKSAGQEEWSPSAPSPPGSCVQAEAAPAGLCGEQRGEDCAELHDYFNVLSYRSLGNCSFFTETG
UniProt Q495A1, 22-141 limits assumed: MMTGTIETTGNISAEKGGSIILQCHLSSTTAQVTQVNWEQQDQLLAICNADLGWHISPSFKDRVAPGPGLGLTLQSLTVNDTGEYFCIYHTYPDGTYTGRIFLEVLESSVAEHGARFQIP

B1: 人源化抗体AB12V8 (antibody, V domains shown)
VH: QVQLVQSGAEVKKPGASVKVSCKASGYAFTNYLIEWIRQAPGQGLEWMGVINPGSGGTNYAQKLQGRVTLTADKSTNTAYMELRSLRSDDTAVYFCAGSYGSSYTFDYWGQGTLVTVSS
VL: DIQMTQSPSSLSASVGDRVTITCRASQHVSTAVVWYQQKPGKAPKLLIYSPSYRYTGVPSRFSGSGSGTDFTLTISSLQPEDFATYYCHQHYSTPWTFGQGTKLEIK
Take B1: the “CDC活性 EC50 (Jurkat-TIGIT细胞, 20%豚鼠血清, OD450)” value in test [1] turned out to be 0.84 nM. Further, in test [2], the “ADCC活性 EC50 (Jurkat-NFAT/luciferase-CD16a效应细胞 + CHO-S-TIGIT靶细胞, 荧光素酶)” value was determined as 0.383 nM. In test [3], the EC50 came out at 0.682 nM. For the same molecule, the IC50 in test [4] worked out at 14.6 nM.

B2: 人源化抗体AB12V5 (antibody, V domains shown)
VH: EVQLVQSGAEVVKPGATVKLSCKASGFNIKDTYINWVKQRPGKGLEWIGRIDPANGDTKYAEKFQGRATITTDTSSNTAYLQLSSLRSEDTAVYYCPKSGDYGWYFDVWGQGTMVTVSS
VL: DIVLTQSPDFQSVTPKEKVTLSCRASQSISNNLHWYQQKPDQSPRLLIKYASQSISGIPSRFSGSGSGTYFTLSINSVEAEDFGMYFCQQSNSWLTFGQGTKLEIK
As for B2, the EC50 in the test with 人TIGIT/mFc was determined as 0.0474 nM.

B3: 人源化抗体AB12V9 (antibody, V domains shown)
VH: QVQLVQSGAEVKKPGSSVKVSCKASGFNIKDTYINWVRQAPGQGLEWMGRIDPASGDTKYAQKFQGRVTITTDTSTNTAYMELSSLRSEDTAVYYCPKSGDYGWYFDVWGQGTLVTVSS
VL: EIVLTQSPDFQSVTPKEKVTITCRASQSISSNLHWYQQKPDQSPKLLIKYASQSISGVPSRFSGSGSGTDFTLTISSLEAEDAATYFCQQSNSWLTFGQGTKLEIK
For B3, the “CDC活性 EC50 (Jurkat-TIGIT细胞, 20%豚鼠血清, OD450)” value in test [1] worked out at 0.82 nM. Moreover, in test [2], the “ADCC活性 EC50 (Jurkat-NFAT/luciferase-CD16a效应细胞 + CHO-S-TIGIT靶细胞, 荧光素酶)” value was determined as 0.39 nM. The molecule also showed a 50% effective concentration (EC50) in test [3] of 1.12 nM. In test [4], the IC50 came out at 29 nM.

B4: 人源化抗体AB12V7 (antibody, V domains shown)
VH: EVQLVQSGAEVKKPGATVKISCKASGFNIKDTYINWVQQAPGKGLEWIGRIDPANGDTKYAEKFQGRVTITTDTSSNTAYMELSSLRSEDTAVYYCPKSGDYGWYFDVWGQGTMVTVSS
VL: DIVLTQSPDFQSVTPKEKVTITCRASQSISNNLHWYQQKPDQSPRLLIKYASQSISGVPSRFSGSGSGTYFTLTINSLEAEDAATYFCQQSNSWLTFGQGTKLEIK
For the molecule B4, the EC50 in the test with 人TIGIT/mFc came to 0.0539 nM.

These data come from patent CN111196852A (SICHUAN KELUN BOTAI BIOMEDICAL CO LTD; ANYUAN MEDICINE TECH …, dated 2020).
